# Assays:
# [1] = cited from earlier work
# [2] = estimated
substance,measurement,setting,value
insulin,maximum blood concentration of insulin,[1]; 10 units of insulin administered nasally to a rabbit,less than 200 μU/ml
same,maximum blood concentration relative to that obtained in injection with same amount of insulin,"[1]; 10 units of insulin, rabbit",about 20%
same,"absorption ratio of the nasal preparation determined from AUC, relative to injection",[2],less than 10%

# From patent publication US8206748B2, “Powdery composition for nasal administration” (Teijin Limited, priority 1996, dated 2012)
